## Yeast mating assay 1: variants of the scFv Ab-14

Binding partner: SARS-CoV-2 spike HR2 peptide, sequence PDVDLGDISGINAS.

Ab-14 is the parent antibody, in scFv form: VH, then three GGGGS repeats, then VL. The light chain is unchanged in all variants.
VH: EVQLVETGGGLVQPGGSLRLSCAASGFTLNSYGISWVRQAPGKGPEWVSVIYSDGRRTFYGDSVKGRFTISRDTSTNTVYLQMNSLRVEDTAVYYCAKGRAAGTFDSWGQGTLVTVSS
VL: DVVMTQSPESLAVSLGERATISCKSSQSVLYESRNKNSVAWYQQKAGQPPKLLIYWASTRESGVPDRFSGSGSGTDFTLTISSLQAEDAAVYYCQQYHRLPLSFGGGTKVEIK

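The parent was found by panning a naive human phage display library on the peptide. AAYL49 was designed without a model: most single CDR substitutions and a random sample of double and triple ones. AlphaSeq pools MATa yeast showing the antibodies with MATalpha yeast showing the peptide. Pairs that bind mate more often; barcode pairs of the diploids are counted by sequencing. Scores were corrected for input abundance and mapped to Kd with protein pairs of known affinity run in the same pool. Each pool was mated in three replicate cultures.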

Each variant is given by its three heavy chain CDRs, as the data file delimits them; those of the parent are GFTLNSYGIS, VIYSDGRRTFYGDSVK, GRAAGTFDS. Affinities are written as log10 Kd with Kd in nM; a lower number is a better binder. A mean of the replicates is given; it leaves out those without a signal. A pair that was not seen in that replicate is written "ND"; this usually means weak binding, but a binder can also be missed. For reference, the parent read 0.65 as the reference entry and 4.11 (one replicate of three) as a member of this library. As a blank, each scFv also met three strains without target: over library AAYL49, 15% of these pairings were detected, typically at 4.06 and seldom below 2.83. Also given: how often the same scFv was detected with the empty control strains, with their mean in brackets.

CDR-H1	CDR-H2	CDR-H3	replicates, log10 nM	mean log10 Kd (nM)	empty controls
LFTLNSYGIS	EIYPDGRRTFYGDSVK	GRAAGTFDS	4.43 / ND / ND	4.43	2 of 9 (3.24)
GFTLNSYGIR	VIYSDGRRTFYGDSLK	GRAAGTFDS	ND / 3.95 / 5.59	4.77	3 of 9 (3.96)
GFTLNSPGAS	VIYSDGRRTNYGDSVK	GRAAGTFDS	ND / 3.43 / ND	3.43	2 of 9 (3.16)
GFTLNSPGIQ	VIYSDGRRTFYGDSVK	GRAAGTFDS	ND / ND / ND	ND	0 of 9
GFTLNSYGIS	VIYSDGRQTFYGDSRK	GRAAGTFDS	ND / ND / ND	ND	0 of 9
GFTFNSYGIS	VIYSDGRRTFYGPSVK	GRCAGTFDS	ND / ND / ND	ND	2 of 9 (4.60)
GFTLLSYGIS	VIYSAGNRTFYGDSVK	GRAAGTFDS	3.92 / ND / ND	3.92	5 of 9 (4.11)
GFTLNSDGIS	VFYSDGRITFYGDSVK	GRAAGTFDS	ND / 3.92 / 5.33	4.62	1 of 9 (4.18)
GFTLNSYGIS	VIYQDGRRTFYGDSVK	GRTAGTFDS	ND / ND / ND	ND	0 of 9
GFTLNSYGIS	VDYSDGRRTNYGDSVK	GRAAGTFDR	ND / ND / ND	ND	0 of 9
GFTNNSYGIS	VISSDGRRTNYGDSVK	GRAAGTFDS	4.77 / 3.94 / 3.84	4.18	2 of 9 (4.15)
GFTLNSLGIS	VIYSDGRRTFYGDSVK	GRLAGTFVS	ND / ND / ND	ND	0 of 9
GFTLNSYGIS	VIYSDGRRKFYGDSVK	GYAAGTFDS	3.64 / 2.71 / 4.46	3.60	1 of 9 (4.66)
GFTLNSYRIS	VIYSDGRRTFYGDSVK	GYAQGTFDS	ND / ND / ND	ND	1 of 9 (5.17)
GFTLNSYGIS	VISSDGWRTFYGDSVK	GRAAGTFTS	ND / ND / ND	ND	0 of 9
EFTLNSYMIS	VWYSDGRRTFYGDSVK	GRAAGTFDS	ND / ND / ND	ND	0 of 9
GFTLNSYGIS	VPYSDGRTTFYGDSVK	GRAAGTFLS	ND / ND / ND	ND	1 of 9 (3.26)
GFTLNSYGIS	VIYSDGRRNFYGDSVK	GRAAGRFDS	2.43 / 2.28 / 2.66	2.46	0 of 9
GFFLNSYGDS	VIYSDGRRRFYGDSVK	GRAAGTFDS	6.25 / ND / ND	6.25	4 of 9 (3.91)
GFTLNSYGIS	VIYSDGHMTFYGWSVK	GRAAGTFDS	ND / ND / ND	ND	0 of 9
GFTLPSYGIS	VIYSDGRRTFYGDCVK	GRAAGTSDS	ND / 3.65 / 4.09	3.87	3 of 9 (4.88)
GFTLNSYGIC	VIYSDGRRTGYGDSVK	GRAAGTFDS	ND / ND / ND	ND	1 of 9 (3.61)
EFTLNSYGIS	VVYSDGRRTFYGDSVK	GRAAGTFDS	2.13 / 3.23 / 2.77	2.71	0 of 9
GFTLASYQIS	VIYSDGRRTFYGDSSK	GRAAGTFDS	3.61 / 4.37 / 4.49	4.16	2 of 9 (3.36)
GFTANSYGIS	VIYSLGRRSFYGDSVK	GRAAGTFDS	4.83 / 2.89 / 6.20	4.64	8 of 9 (4.32)
GFTLNSYGIS	VIYCDLRRTFYGDSVK	GRAAGTPDS	ND / ND / ND	ND	0 of 9
GFTLNSYGNS	VIYSDGRRTFYGDSEK	DRAAGTFDS	ND / ND / 2.86	2.86	2 of 9 (3.16)
GFTLNPYGIS	VIYSDGRRTFYGDSVK	GRAAGTFDS	ND / ND / ND	ND	0 of 9
GFTLNSYGIS	VIYSDGRRTFYGGSNK	GRAACTFDS	ND / ND / ND	ND	4 of 9 (4.96)
GFTLNGYGIS	VIYSDGRRTFYGDSVK	GRAAGTFDS	3.67 / 2.95 / 2.46	3.02	0 of 9
GFTLNSYGIS	VIYSDTRRTFYGYSVK	GRAAGTFDS	ND / ND / ND	ND	0 of 9
WFTLNSYGIS	VIYSDGRRKFYGDSVK	GRCAGTFDS	1.23 / 2.21 / ND	1.72	0 of 9
GFTSNSVGIS	VIYSDGRRTSYGDSVK	GRAAGTFDS	ND / ND / ND	ND	0 of 9
GFTLNSNGIS	EIYSDGRRTFYGDSVK	GRAAGTEDS	ND / ND / ND	ND	1 of 9 (4.75)
GFTLNSYGIS	VIYSFGRRTFYGDSVK	GRQADTFDS	ND / ND / ND	ND	0 of 9
GETLNSYGIS	VSYSDGSRTFYGDSVK	GRAAGTFDS	ND / ND / ND	ND	0 of 9

Again, the first 4 entries without any signal:

CDR-H1,CDR-H2,CDR-H3,"replicates, log10 nM",mean log10 Kd (nM),empty controls
GFTLNSPGIQ,VIYSDGRRTFYGDSVK,GRAAGTFDS,ND / ND / ND,ND,0 of 9
GFTLNSYGIS,VIYSDGRQTFYGDSRK,GRAAGTFDS,ND / ND / ND,ND,0 of 9
GFTFNSYGIS,VIYSDGRRTFYGPSVK,GRCAGTFDS,ND / ND / ND,ND,2 of 9 (4.60)
GFTLNSYGIS,VIYQDGRRTFYGDSVK,GRTAGTFDS,ND / ND / ND,ND,0 of 9

From the AlphaSeq antibody data of Engelhart et al. 2022 (doi:10.1038/s41597-022-01779-4), copy in the FLAb collection.